The test system of the assay is Human immunodeficiency virus 1. Briefly: Antiviral activity against HIV1 infected in human peripheral blood mononuclear cells assessed as inhibition of reverse transcriptase activity incubated for 6 days. Type of assay: functional, organism-based. The note with it: Human immunodeficiency virus 1, 144 h.

For orientation: EC50 means the concentration needed to bring the measured effect to its halfway point. As to `Cc1cn([C@H]2C[C@H](N=[N+]=[N-])[C@@H](CO)O2)c(=O)[nH]c1=O` [ZIDOVUDINE], the 50% effective concentration (EC50) was determined as 7.4 nM.

For the origin of these results see ChEMBL document CHEMBL3734651, “Synthesis of dihydropyrimidine α,γ-diketobutanoic acid derivatives targeting HIV integrase” (Eur J Med Chem, 2015).
